Reference: US20050130235A1 (CALIFORNIA INSTITUTE OF TECHNOLOGY, published 2005)

Chains of the proteins cited; added tags and fusions are not shown.
UniProt P02470, whole entry, chain 1 of 2: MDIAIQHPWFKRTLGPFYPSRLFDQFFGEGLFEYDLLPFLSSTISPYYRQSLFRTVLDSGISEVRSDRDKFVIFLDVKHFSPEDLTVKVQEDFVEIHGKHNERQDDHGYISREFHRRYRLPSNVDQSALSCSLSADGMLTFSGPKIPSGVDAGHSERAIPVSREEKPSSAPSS
Bovine lens α-crystallin (a mixture of A and B chains), UniProt P02510, whole entry, chain 2 of 2: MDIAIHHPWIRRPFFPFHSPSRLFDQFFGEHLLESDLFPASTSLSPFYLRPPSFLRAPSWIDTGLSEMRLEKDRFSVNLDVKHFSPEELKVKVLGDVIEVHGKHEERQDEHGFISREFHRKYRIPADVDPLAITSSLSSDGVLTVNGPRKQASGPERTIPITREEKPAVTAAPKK

Target: Bovine lens α-crystallin (a mixture of A and B chains) (bovine, UniProt P02470 1-173; P02510 1-175, O-GlcNAc at Ser162, stoichiometry ~10%)
Assay: lectin blot, WGA-HRP 1:8000
Experimental: WGA western blotting was performed essentially as described.(25, 27) Briefly, α-crystallin and controls were resolved by 15% SDS-PAGE and electrophoretically transferred to nitrocellulose. Blots were blocked for 1 h in 3% periodate-treated BSA in PBS, rinsed 2×15 min with PBS-0.05% tween-20 (PBST), and probed for 2 h with WGA-HRP (1:8000 in PBST). Subsequently, blots were rinsed with PBST, washed 3×10 min, then 3×20 min before chemiluminescence detection on film (FIG. 12).

- binding result: no binding
B1: wheat-germ agglutinin (WGA) lectin (other, UniProt P10968 27-197, looked up)
chain: QRCGEQGSNMECPNNLCCSQYGYCGMGGDYCGKGCQNGACWTSKRCGSQAGGATCTNNQCCSQYGYCGFGAEYCGAGCQGGPCRADIKCGSQAGGKLCPNNLCCSQWGFCGLGSEFCGGGCQSGACSTDKPCGKDAGGRVCTNNYCCSKWGSCGIGPGYCGAGCQSGGCDG
modifications: conjugated to HRP (WGA-HRP)
notes: Used as an HRP conjugate for blotting; also called WGA-HRP
